Assay results published in patent US10266806B2, “Stem cell-derived hepatocytes in co-culture and uses thereof” (Colorado State University Research Foundation, priority 2014, dated 2019).

Test system: iHeps in iMPCCs
Conditions: human, 6 days

`CN1CCN(C2=Nc3cc(Cl)ccc3Nc3ccccc32)CC1` [Clozapine] was tested, and the “TC50 in MPCCs ATP” value was 57.9 µM, the “TC50 in MPCCs Albumin” value was 27.8 µM and the “TC50 in MPCCs Urea” value was 20.9 µM.
